Sequences of proteins named here, by UniProt entry; tags and fusion partners are left off. Residues count along the entry.
UniProt P16473, 21-764: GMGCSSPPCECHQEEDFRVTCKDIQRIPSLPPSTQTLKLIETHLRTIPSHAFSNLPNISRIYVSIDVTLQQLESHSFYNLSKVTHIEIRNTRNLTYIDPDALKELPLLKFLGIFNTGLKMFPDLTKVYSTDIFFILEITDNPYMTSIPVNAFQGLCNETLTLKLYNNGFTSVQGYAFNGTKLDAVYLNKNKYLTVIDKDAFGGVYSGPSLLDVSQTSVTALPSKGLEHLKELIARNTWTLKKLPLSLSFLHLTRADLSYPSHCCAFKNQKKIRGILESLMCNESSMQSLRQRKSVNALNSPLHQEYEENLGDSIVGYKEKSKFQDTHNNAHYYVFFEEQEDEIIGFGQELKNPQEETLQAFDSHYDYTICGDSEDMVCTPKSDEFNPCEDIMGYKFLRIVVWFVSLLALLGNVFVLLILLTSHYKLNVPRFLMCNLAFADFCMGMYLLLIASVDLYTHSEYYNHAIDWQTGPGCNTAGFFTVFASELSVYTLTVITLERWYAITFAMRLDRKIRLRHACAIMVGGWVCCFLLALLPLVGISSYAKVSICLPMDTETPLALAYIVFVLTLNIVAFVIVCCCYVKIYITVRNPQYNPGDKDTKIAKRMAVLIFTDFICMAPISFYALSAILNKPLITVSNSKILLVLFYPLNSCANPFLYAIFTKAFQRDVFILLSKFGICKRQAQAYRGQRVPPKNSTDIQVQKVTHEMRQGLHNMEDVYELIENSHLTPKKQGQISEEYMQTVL

In patent US20060258644A1, “Pyrrolobenzodiazepines and heteroaryl, aryl and cycloalkylamino ketone derivatives as follicle stimulating hormone receptor (FSH-R) antagonists” (Wyeth, priority 2005, published 2006):

Columns and labels:
Format in all cases: cell-based
human FSH receptor = molecular target: T1, human FSH receptor (Homo sapiens, UniProt P23945); test: FSH receptor-dependent CRE-luciferase reporter gene assay (CHO FSH-R 6CRE-Luc cells); settings: positive control
T1 construct: host or cells: CHO-K1 (CHO FSH-R 6CRE-Luc, 1D7 cells)
T1 sequence (P23945 18-695): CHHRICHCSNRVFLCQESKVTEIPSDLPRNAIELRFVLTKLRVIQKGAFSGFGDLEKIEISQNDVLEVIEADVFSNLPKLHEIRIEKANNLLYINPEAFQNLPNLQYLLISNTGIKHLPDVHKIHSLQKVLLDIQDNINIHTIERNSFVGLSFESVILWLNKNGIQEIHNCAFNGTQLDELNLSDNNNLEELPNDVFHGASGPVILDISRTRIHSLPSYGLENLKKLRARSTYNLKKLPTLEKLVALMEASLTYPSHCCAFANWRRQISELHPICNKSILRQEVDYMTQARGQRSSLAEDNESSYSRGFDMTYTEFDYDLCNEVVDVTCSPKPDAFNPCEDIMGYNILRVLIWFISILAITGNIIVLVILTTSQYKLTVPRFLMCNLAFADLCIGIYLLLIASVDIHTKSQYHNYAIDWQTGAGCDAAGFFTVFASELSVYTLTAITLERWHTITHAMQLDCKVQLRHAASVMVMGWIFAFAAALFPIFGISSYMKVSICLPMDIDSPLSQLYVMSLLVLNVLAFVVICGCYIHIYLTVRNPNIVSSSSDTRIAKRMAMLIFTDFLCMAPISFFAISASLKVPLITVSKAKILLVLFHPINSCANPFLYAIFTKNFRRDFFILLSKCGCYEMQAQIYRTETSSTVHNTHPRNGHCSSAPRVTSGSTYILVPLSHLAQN
Excerpt: Follicle-Stimulating Hormone Receptor-Dependent CRE-Luciferase Reporter Gene Assay for the Identification of Follicle-Stimulating Hormone (FSH) Antagonists
This procedure was used to identify and determine the relative potencies of human FSH receptor antagonists using a Chinese hamster ovarian cell line that stably produces the human FSH receptor and a luciferase reporter gene regulated by cAMP response elements.
• Compound Vehicle: Stock compounds were solubilized in an appropriate vehicle, preferably phosphate buffered saline (PBS) or dimethyl sulfoxide (DMSO), at 30 mM. The compounds were subsequently diluted in DMSO to working dilutions of 1 and 20 or 30 mM for 2-dose testing format and 1 μM-10 mM for dose-response format. The DMSO dilutions were diluted 500-fold in sterile growth medium [D-MEM/F-12 (GIBCO/BRL; Grand Island N.Y.) containing 15 mM HEPES, 2 mM 1-glutamine, pyridoxine hydrochloride, phenol red and 5% FetalClone II (HyClone Laboratories, Inc; Logan, Utah), 0.2% DMSO, 100 units penicillin G/ml, and 100 μg streptomycin sulfate/ml (GIBCO/BRL)]. The concentration of the vehicle in each of the compound dilutions was the same. • Positive Controls: Purified human FSH (>98%) was purchased from Cortex Biochem, Inc. (San Leandro, Calif.) and WAY-162002 (an FSH-R thiazolidinone antagonist) was obtained from the Wyeth Research compound repository. Preparation of Cells […]

hFSH-R = molecular target: T2, hFSH-R (Homo sapiens, UniProt P23945); test: cAMP accumulation bio-assay in CHO-3D2 cells (hFSH-R), RIA
T2 construct: expressed in transfected cells; host or cells: CHO-3D2 cells
T2 sequence (P23945 18-695): T1 sequence (P23945 18-695)
Experimental: In vitro Bio-Assay of Agonists and Antagonists to the FSH Repeptor. Selectivity and Dependency of Agonists and Antagonists to the FSH Receptor
This assay was used to verify in vitro potency, efficacy, selectivity and receptor dependency of hits found to inhibit an FSH-R-CRE-luciferase driven reporter.
Compound Vehicle: Stock compounds were solubilized in 100% DMSO (Sigma Chemical Co.) at a concentration of 30 mM. The compounds were subsequently diluted in sterile assay medium consisting of Opti-MEM® I (Life Technologies) with 0.1% (w/v) BSA (Sigma), prior to use in the bio-assay. The final concentration of DMSO in the assay is 0.1%.
The day prior to the experiment, CHO-3D2 cells (hFSH-R)(1) were plated into 96-well tissue culture plates (Falcon) at a density of 30,000 cells/well in DMEM/F12 medium (Life Technologies) supplemented with 5% Fetal Clone II (Hyclone), 2 mM L-glutamine (Life Technologies) and penicillin/streptomycin (100 U/ml, Life Technologies). Plated cells are then incubated at 37° C. in a humidified 5% CO2/95% air, atmosphere.
On the day of the assay, cells were washed three times with 100 μl/well of assay medium consisting of Opti-MEM® I (Life Technologies) with 0.1% (w/v) BSA (Sigma). Medium was removed and 100 μl of assay medium was added to each well. Plates were incubated for an additional 30 minutes at 37° C. Medium was then removed and cells were challenged for 30 minutes at 37° C. in 50 μl of assay media containing vehicle, purified hFSH (>95% pure; Cortex Biochem, Inc., San Leandro, Calif.) in the presence or absence of test compounds. Reactions were terminated by the addition of 50 μl of 0.2N hydrochloric acid to each well and cAMP-accumulation was measured by radioimmunoassay (RIA) using a commercially available kit (Amersham).
All test compounds were evaluated in a dose-response paradigm ranging from 0.01 to 30 μM. Controls and test compounds were evaluated in quadruplicate in a 96-well format. Cells were treated with vehicle, hFSH at EC20 (1.85 ng/mL is 53 pM), or the compounds in the presence or absence of hFSH at its EC20 dose. The ability of the compounds to inhibit the cAMP-accumulation induced by hFSH was evaluated by RIA.
In every assay the EC20 concentration was calculated and only those experiments in which the EC20 concentrations were equal to 1.85±0.4 ng/mL were accepted as valid. […]
cAMP accumulation is expressed as fmol/ml. cAMP accumulation in the agonist mode, or the ability of the compound to inhibit hFSH-, hTSH-, or forskolin-induced cAMP-accumulation in the antagonist mode, was compared to the appropriate negative and positive controls. Data were analyzed by one-way analysis of variance and significant differences between treatments and control determined by Least Significant Difference test. […]

hTSH-R = molecular target: T3, hTSH-R (Homo sapiens, UniProt P16473); test: Selectivity study: cAMP accumulation in CHO-25 (hTSH-R) cells
T3 construct: expressed in transfected cells; host or cells: CHO-25 cells
Experimental: cAMP accumulation assays using CHO-25 (hTSH-R) cells were performed as described above for the CHO-3D2 cells with the following exceptions: CHO-25 cells were plated at a density of 50,000 cells/well (2). All test compounds were evaluated in a dose-response paradigm ranging from 0.01 to 30 μM. Controls and test compounds were evaluated in quadruplicate. Cells were treated with vehicle, hTSH at EC20 (5nM; hTSH>98% pure, Cortex Biochem, Inc.), or the compounds in the presence or absence of the hTSH at its EC20 concentration. The ability of the compounds to inhibit cAMP-accumulation induced by hTSH was evaluated by RIA.
Along with the test compounds, hTSH was also run as a positive control in the agonist mode using concentrations ranging from 0.01 μM-1000 l μM.
cAMP accumulation is expressed as fmol/ml. cAMP accumulation in the agonist mode, or the ability of the compound to inhibit hFSH-, hTSH-, or forskolin-induced cAMP-accumulation in the antagonist mode, was compared to the appropriate negative and positive controls. Data were analyzed by one-way analysis of variance and significant differences between treatments and control determined by Least Significant Difference test.

[1] = agonist mode, four-parameter logistic equation

EC50 in CRE-luciferase assay (human FSH receptor) | EC100 in CRE-luciferase assay (human FSH receptor) | EC20, cAMP accumulation (hFSH-R; 1.85 ng/mL expressed in pM) | apparent EC20, cAMP accumulation (hFSH-R; [1]) | apparent EC50, cAMP accumulation (hFSH-R; [1]) | apparent EC80, cAMP accumulation (hFSH-R; [1]) | EC20, cAMP accumulation (hTSH-R) | Substance
0.4 ng/mL | 1000 ng/mL | 53 pM | 1.85 ng/mL | 6.03 ng/mL | 22.55 ng/mL |  | hFSH: Purified human FSH (>98%) purchased from Cortex Biochem, Inc.; positive control
 |  |  |  |  |  | 5 nM | hTSH: hTSH >98% pure, Cortex Biochem, Inc.; agonist control in selectivity assay
